ChEMBL document CHEMBL1148531, “The discovery of new 11beta-hydroxysteroid dehydrogenase type 1 inhibitors by common feature pharmacophore modeling and virtual screening” (J Med Chem, 2006)

Protein sequences, listed by entry. Tags and fused reporters are not part of them. Lines headed by an entry give the natural chain unless they say otherwise; changes in a name come on top.
UniProt P28845: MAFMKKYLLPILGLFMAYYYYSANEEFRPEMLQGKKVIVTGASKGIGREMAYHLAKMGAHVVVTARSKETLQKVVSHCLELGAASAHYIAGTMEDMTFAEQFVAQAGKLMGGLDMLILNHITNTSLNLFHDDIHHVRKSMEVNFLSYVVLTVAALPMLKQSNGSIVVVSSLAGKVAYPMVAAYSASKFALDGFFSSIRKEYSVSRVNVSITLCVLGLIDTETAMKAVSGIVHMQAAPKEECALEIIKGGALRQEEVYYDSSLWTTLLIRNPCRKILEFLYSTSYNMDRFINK

Key:
Format in all cases: cell-based
[1] = molecular target: T1, 11-beta-hydroxysteroid dehydrogenase 1 (Homo sapiens, UniProt P28845); assay: Inhibition of human recombinant 11-beta-HSD1 transfected in intact HEK293 cells
Method in brief: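 HEK-293 cells cotransfected (calcium phosphate) with 11β-HSD1 and H6PDH plasmids, replated after 6 h at 30000 cells/well in steroid-free DMEM for 18 h. Inhibitor 50 nM–20 µM final with 200 nM radiolabeled cortisone, 90 min at 37 °C; stopped with excess unlabeled steroids in methanol, TLC, scintillation counting. Mean ± SD, at least four experiments.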

[2] = molecular target: T1, 11-beta-hydroxysteroid dehydrogenase 1; assay: Inhibition of human recombinant 11-beta-HSD1 expressed in HEK293 cells
[3] = molecular target: T2, 11-beta-hydroxysteroid dehydrogenase type 2 (Homo sapiens, UniProt P80365); assay: Inhibition of human recombinant 11-beta-HSD2 expressed in HEK293 cells
T2 sequence (P80365 whole entry): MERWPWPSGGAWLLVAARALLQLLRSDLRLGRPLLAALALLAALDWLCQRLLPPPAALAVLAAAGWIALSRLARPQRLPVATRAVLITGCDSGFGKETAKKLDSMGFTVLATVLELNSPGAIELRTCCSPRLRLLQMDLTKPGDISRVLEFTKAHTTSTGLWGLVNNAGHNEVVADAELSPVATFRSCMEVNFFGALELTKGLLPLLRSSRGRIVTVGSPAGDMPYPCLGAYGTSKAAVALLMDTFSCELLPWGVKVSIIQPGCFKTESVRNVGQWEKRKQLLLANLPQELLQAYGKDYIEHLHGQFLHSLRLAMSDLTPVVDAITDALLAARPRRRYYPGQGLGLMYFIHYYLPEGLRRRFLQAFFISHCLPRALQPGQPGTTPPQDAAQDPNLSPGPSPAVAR

IC50 [1]: 12600 nM
IC50 [2]: 2810 nM
IC50 [3]: 2350 nM
SMILES: C[C@H]1C[C@@]2(C)CC[C@](C)(C(=O)N[C@H](Cc3ccccc3)C(=O)O)C[C@@]2(C)C2=CC(=O)[C@@H]3[C@@]4(C)CC[C@H](O)C(C)(C)[C@@H]4CC[C@@]3(C)[C@@]21C
